# Results taken from patent publication US20230192857A1.
# Chains of the proteins cited; added tags and fusions are not shown. Lines headed by an entry give the natural chain unless they say otherwise; changes in a name come on top.
# UniProt Q9NSE2: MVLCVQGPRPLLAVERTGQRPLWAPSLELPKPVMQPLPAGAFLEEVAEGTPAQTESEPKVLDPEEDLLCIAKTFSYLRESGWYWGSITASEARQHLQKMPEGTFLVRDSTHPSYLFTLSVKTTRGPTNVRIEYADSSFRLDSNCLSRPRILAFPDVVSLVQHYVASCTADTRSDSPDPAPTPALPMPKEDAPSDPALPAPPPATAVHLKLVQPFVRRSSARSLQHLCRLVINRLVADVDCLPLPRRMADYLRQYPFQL
# Experiments:
# [1] = target: JAK2
# [2] = target: TYK2
substance,measurement,setting,value
CIS (from UniProt Q9NSE2 66-258; Q15370 1-118; Q15369 17-112),IC50,[1],2400 nM
same,IC50,[2],> 20000 nM
